We go through 1 substance from patent US20240277758A1.

The data set can be described thus: Solubility in water/organic mixtures. As to conditions: same water/organic mixtures; acetonitrile mixture only after adjusting water to 70%.

sodium thiosulfate: the “solubility of sodium thiosulfate” value was ≥ 94 mg/mL.
